Measured values as given in US20260132129A1.

The chains behind the UniProt entries cited, without tags or fusion partners.
UniProt P42336, whole entry H1047R: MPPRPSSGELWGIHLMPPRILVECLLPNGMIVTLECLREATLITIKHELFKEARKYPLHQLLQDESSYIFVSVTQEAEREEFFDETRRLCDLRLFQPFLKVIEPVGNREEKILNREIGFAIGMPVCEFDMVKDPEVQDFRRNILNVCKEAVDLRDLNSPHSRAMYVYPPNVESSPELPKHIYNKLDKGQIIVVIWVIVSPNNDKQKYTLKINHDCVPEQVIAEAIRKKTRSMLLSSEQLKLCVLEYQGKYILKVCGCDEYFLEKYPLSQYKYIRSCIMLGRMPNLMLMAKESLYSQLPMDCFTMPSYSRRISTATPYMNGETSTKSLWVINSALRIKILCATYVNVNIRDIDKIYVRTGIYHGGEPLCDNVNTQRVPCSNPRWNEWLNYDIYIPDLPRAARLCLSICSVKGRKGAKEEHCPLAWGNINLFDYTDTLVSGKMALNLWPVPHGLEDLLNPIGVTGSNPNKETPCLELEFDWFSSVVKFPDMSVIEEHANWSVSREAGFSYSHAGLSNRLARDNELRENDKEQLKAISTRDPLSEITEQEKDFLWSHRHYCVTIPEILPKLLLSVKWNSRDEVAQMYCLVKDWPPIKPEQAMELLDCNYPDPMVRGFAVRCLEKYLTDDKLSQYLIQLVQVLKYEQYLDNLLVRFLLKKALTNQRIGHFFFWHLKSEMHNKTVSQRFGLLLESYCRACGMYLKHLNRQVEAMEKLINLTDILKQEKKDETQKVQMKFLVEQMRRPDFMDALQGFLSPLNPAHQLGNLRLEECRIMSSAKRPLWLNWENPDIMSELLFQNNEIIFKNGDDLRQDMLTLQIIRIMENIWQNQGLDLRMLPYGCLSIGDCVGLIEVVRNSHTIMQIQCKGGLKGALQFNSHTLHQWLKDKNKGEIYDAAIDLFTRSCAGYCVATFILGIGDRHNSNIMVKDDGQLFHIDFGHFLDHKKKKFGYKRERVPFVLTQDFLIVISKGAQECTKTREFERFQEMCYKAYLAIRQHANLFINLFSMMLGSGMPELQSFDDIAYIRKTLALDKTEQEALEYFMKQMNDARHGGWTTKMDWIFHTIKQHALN
UniProt P27986, whole entry partner: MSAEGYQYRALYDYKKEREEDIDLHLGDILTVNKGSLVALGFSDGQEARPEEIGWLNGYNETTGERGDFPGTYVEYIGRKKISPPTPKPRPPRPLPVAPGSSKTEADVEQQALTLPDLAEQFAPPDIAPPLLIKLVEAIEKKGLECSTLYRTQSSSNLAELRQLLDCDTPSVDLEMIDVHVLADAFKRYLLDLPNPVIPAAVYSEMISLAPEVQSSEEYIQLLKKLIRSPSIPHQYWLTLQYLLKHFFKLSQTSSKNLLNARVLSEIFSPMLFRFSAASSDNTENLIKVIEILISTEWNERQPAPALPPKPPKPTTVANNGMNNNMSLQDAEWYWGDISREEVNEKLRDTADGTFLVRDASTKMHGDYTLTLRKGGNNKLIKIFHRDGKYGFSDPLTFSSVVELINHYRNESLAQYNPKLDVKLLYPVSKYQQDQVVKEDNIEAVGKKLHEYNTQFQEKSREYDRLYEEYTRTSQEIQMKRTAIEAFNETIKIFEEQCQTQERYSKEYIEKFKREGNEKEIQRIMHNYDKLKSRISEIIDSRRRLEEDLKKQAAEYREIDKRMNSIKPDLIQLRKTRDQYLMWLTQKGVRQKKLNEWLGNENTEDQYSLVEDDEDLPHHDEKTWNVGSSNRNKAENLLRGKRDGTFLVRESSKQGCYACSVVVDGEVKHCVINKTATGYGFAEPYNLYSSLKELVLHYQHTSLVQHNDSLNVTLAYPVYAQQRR

Biological target: PI3Kα H1047R (T47D cells) (Homo sapiens, UniProt P42336, H1047R)
Test: PI3Kα cellular assay: pAKT HTRF in T47D cells after EGF stimulation
Format: cell-based
Conditions: for IC50: read-out: T47D pAKT S473 HTRF IC50 (H1047R): Average IC50, T47D cells (PI3Kα H1047R), pAKT S473 HTRF
[1] = selectivity T47D (H1047R) over SKBR3 (WT), pAKT HTRF
[2] = selectivity of T47D (H1047R) over SKBR3 (WT) pAKT IC50
[3] = 1 hr compound, 20 ng/ml EGF 10 min

SMILES | IC50 (EGF stimulation) | T47D pAKT S473 HTRF IC50 (H1047R): T47D (H1047R) selectivity over SKBR3 (WT) [1] | T47D pAKT S473 HTRF IC50 (H1047R): T47D (H1047R) selectivity over SKBR3 (WT) [2] | IC50 [3]
Cc1cc([C@H](C)Nc2ccccc2C(N)=O)c2nc(C3CCOCC3)c(C)c(=O)n2c1 | < 100 nM | A (A denotes >20-fold) |  | 
Cc1cc([C@H](C)Nc2ccccc2S(N)(=O)=O)c2nc(-c3cnc(C)c(Cl)c3)c(C)c(=O)n2c1 | 100 to 500 nM | A (A denotes >20-fold) |  | 
Cc1cc([C@@H](C)Nc2ccccc2C(=O)O)c2nc(-c3ccc4c(n3)c(C)nn4C)c(C)c(=O)n2c1 | 100 to 500 nM |  | A (A denotes >20-fold) | 
Cc1cc([C@@H](C)Nc2ccccc2C(=O)O)c2nc(-c3cnc(C)c(C(F)(F)F)c3)c(C)c(=O)n2c1 | < 100 nM | A (A denotes >20-fold) |  | 
Cc1cc(C(C)Nc2ccccc2C(=O)O)c2nc(N3CCC(S(C)(=O)=O)CC3)cc(=O)n2c1 (centres unmarked) |  | C (C denotes ≤5-fold) |  | > 2000 nM
Cc1cc([C@@H](C)Nc2ccccc2C(=O)O)c2nc(N3CCO[C@H](C)C3)cc(=O)n2c1 |  | C (C denotes ≤5-fold) |  | > 2000 nM
Cc1cc([C@@H](C)Nc2ccccc2C(=O)O)c2nc(-c3ccnc(C4CC4)n3)c(C)c(=O)n2c1 | < 100 nM | A (A denotes >20-fold) |  | 
Cc1cc([C@H](C)Nc2cnccc2C(=O)O)c2nc(N3CCOCC3)cc(=O)n2c1 |  | C (C denotes ≤5-fold) |  | > 2000 nM
Cc1cc([C@@H](C)Nc2ccccc2C(=O)O)c2nc(-c3ccc(C(F)F)nc3)c(C)c(=O)n2c1 | < 100 nM | A (A denotes >20-fold) |  | 
Cc1cc([C@@H](C)Nc2ccccc2C(=O)O)c2nc(-c3ccnc(C)c3)c(C)c(=O)n2c1 | < 100 nM | A (A denotes >20-fold) |  | 
Cc1cc([C@@H](C)Nc2ccccc2C(=O)O)c2nc(-c3c(C)ccc4[nH]ncc34)cc(=O)n2c1 |  | C (C denotes ≤5-fold) |  | > 2000 nM
Cc1cc([C@H](C)Nc2ccccc2C(=O)O)c2nc(N3CC4(COC4)C3)cc(=O)n2c1 |  | C (C denotes ≤5-fold) |  | > 2000 nM
Cc1cc(C(C)Nc2ccccc2S(N)(=O)=O)c2nc(-c3ccc(C4CC4)nc3)c(C3CC3)c(=O)n2c1 (centres unmarked) | 100 to 500 nM | A (A denotes >20-fold) |  | 
C=CC(=O)Nc1cc(C(C)Nc2ccccc2C(=O)O)c2nc(-c3ccc(F)cc3)cc(=O)n2c1 (centres unmarked) | > 2000 nM |  | C (C denotes ≤5-fold) | 
COc1cc(-c2cc(=O)n3cc(C)cc([C@@H](C)Nc4ccccc4C(=O)O)c3n2)ccn1 |  | A (A denotes >20-fold) |  | 100 to 500 nM
Cc1cc([C@H](C)Nc2ccccc2S(N)(=O)=O)c2nc(C3CCOCC3)c(C)c(=O)n2c1 | < 100 nM | A (A denotes >20-fold) |  | 
Cc1nn(C)c2ccc(-c3cc(=O)n4cc(Cl)cc([C@H](C)Nc5ccccc5C(=O)O)c4n3)cc12 | < 100 nM |  | A (A denotes >20-fold) | 
Cc1cc(C(C)Nc2ccccc2S(N)(=O)=O)c2nc(-c3ccc4c(c3)c(C)cn4C3CCOCC3)c(C)c(=O)n2c1 (centres unmarked) | 100 to 500 nM |  | A (A denotes >20-fold) | 
Cc1cc([C@@H](C)Nc2cccc3c2C(=O)NS3(=O)=O)c2nc(N3Cc4ccccc4C3)cc(=O)n2c1 | > 2000 nM | C (C denotes ≤5-fold) |  | 

SMILES | IC50 (EGF stimulation) | T47D pAKT S473 HTRF IC50 (H1047R): T47D (H1047R) selectivity over SKBR3 (WT) [1] | T47D pAKT S473 HTRF IC50 (H1047R): T47D (H1047R) selectivity over SKBR3 (WT) [2] | IC50 [3]
Cc1cc([C@@H](C)Nc2ccccc2C(=O)O)c2nc(-c3cc(C(N)=O)c4[nH]ccc4c3)cc(=O)n2c1 |  | A (A denotes >20-fold) |  | 100 to 500 nM
Cc1cc([C@H](C)Nc2ccccc2C(=O)O)c2nc(-c3ccnc(C4CC4)n3)c(C)c(=O)n2c1 | < 100 nM | C (C denotes ≤5-fold) |  | 
Cc1cc([C@@H](C)Nc2ccccc2C(=O)O)c2nc(-c3ccc(C(C)(F)F)cc3)cc(=O)n2c1 |  | A (A denotes >20-fold) |  | 100 to 500 nM
Cc1cc(C(C)Nc2ccccc2C(=O)O)c2nc(-c3ccc(CN4CCN(C(=O)C5CC5)CC4)c(F)c3)cc(=O)n2c1 (centres unmarked) |  | A (A denotes >20-fold) |  | 100 to 500 nM
Cc1cc(C(C)Nc2ccccc2S(N)(=O)=O)c2nc(-c3cccc(F)c3)c(C)c(=O)n2c1 (centres unmarked) [Compound 1248] | 100 to 500 nM | A (A denotes >20-fold) |  | 
Cc1cc([C@H](C)Nc2ccccc2-c2ccnnc2)c2nc(-c3cnc(C)c(Cl)c3)c(C)c(=O)n2c1 | 100 to 500 nM | A (A denotes >20-fold) |  | 
Cc1cc([C@H](C)Nc2ccccc2C(=O)O)c2nc(-c3ccnc(C)n3)c(C)c(=O)n2c1 | 100 to 500 nM | A (A denotes >20-fold) |  | 
Cc1cc(C(C)Nc2ccccc2C(=O)O)c2nc(OC3CCOCC3)c(C)c(=O)n2c1 (centres unmarked) | < 100 nM | A (A denotes >20-fold) |  | 
Cc1cc([C@H](C)Nc2ccccc2C(=O)O)c2nc(-c3cc(C)c4[nH]c(=O)[nH]c4c3)cc(=O)n2c1 (single isomer, unassigned) |  |  |  | 500 to 2000 nM
Cc1cc([C@H](C)Nc2ccccc2S(N)(=O)=O)c2nc(N3Cc4ccccc4[C@@H]3C)c(C)c(=O)n2c1 | 100 to 500 nM | A (A denotes >20-fold) |  | 
Cc1cc([C@@H](C)Oc2ccccc2C(=O)O)c2nc(C#Cc3ccccc3)c(C)c(=O)n2c1 | < 100 nM | A (A denotes >20-fold) |  | 
Cc1cc([C@@H](C)Nc2ccccc2C(=O)O)c2nc(N3C[C@H]4C[C@@H](C5CCN(S(=O)(=O)N(C)C)CC5)C[C@H]4C3)cc(=O)n2c1 | 100 to 500 nM |  | A (A denotes >20-fold) | 
Cc1cc([C@@H](C)Nc2ccccc2C(=O)O)c2nc(N3Cc4ccccc4C3)cc(=O)n2c1 [392] |  | C (C denotes ≤5-fold) |  | > 2000 nM
Cc1cc(C(C)Nc2ccccc2C(=O)O)c2nc(N3CCC(CO)CC3)cc(=O)n2c1 (centres unmarked) |  | C (C denotes ≤5-fold) |  | > 2000 nM
Cc1cc([C@H](C)Nc2cccc3c2C(=O)NS3(=O)=O)c2nc(N3Cc4ccccc4C3)cc(=O)n2c1 | > 2000 nM | C (C denotes ≤5-fold) |  | 
Cc1cc(C(C)Nc2ccccc2C(=O)O)c2nc(N3CC4(COC4)C3)cc(=O)n2c1 (centres unmarked) |  | C (C denotes ≤5-fold) |  | > 2000 nM
Cc1cc([C@@H](C)Nc2ccncc2C(=O)O)c2nc(N3CCOCC3)cc(=O)n2c1 |  | C (C denotes ≤5-fold) |  | > 2000 nM
Cc1cc(C(C)Nc2ccccc2C(=O)O)c2nc(N3CC4(CCOC4)C3)cc(=O)n2c1 (centres unmarked) |  |  |  | 500 to 2000 nM
Cc1cc([C@@H](C)Nc2ccccc2C(=O)O)c2nc(-c3ccc4c(c3)c(C#N)nn4C)c(C)c(=O)n2c1 | < 100 nM | A (A denotes >20-fold) |  | 

Like-named read-outs stand apart in the source and are kept apart here.
